Assay type in all cases: cell-based
Data set [1] concerns mouse skeletal muscle cell strain C2C12. Nature of the data set: C2C12 culture on plate with immobilized b-FGF and IGF-I and BMP-2 transfer sheet, optical microscope (Example 5). The following applies: C2C12, 96 hours, BMP-2 dissolved from transfer sheet. How it is done:
The following method was employed for acting biologically active substances in combination on cells. As the biologically active substances, there were employed basic fibroblast cell growth factor (b-FGF), insulin-like growth factor (IGF-I) and bone morphogenetic protein (BMP-2).
First, bFGF and IGF-I were immobilized onto a polystyrene 96-well cell culture plate in the following manner.
On the cell culture plate coated with poly-L-lysine, a solution (1.5 mg/ml) of active dextran activated with tresyl chloride was added to bind the activated dextran to the plate. Then carbonate buffer solutions containing b-FGF and IGF-I respectively were prepared, applied to the microplate with various amounts. The microplate was left to stand for 12 hours at 4° C. to prepare a cell culture plate including areas where b-FGF and IGF-I were immobilized either singly or in combination with different concentrations, as well as control areas without immobilization.
A polystyrene sheet having projections corresponding the wells of the microplate was provided and sterilized. […]
Then the cells were treated with 10% formalin for 15 minutes and then with methanol for 15 minutes, and reacted with a fluorescent dye for 30 minutes for fluorescent staining of DNA. […] Thus the complex effects of three factors, namely immobilized bFGF, soluble IGF-I and BMP-2, to the cells were analyzed.

The test system is the same in data set [2]. Nature of the data set: C2C12 culture with sequential transfer sheets A and B, CK and ALP activities (Example 2). The following applies: C2C12, areas containing BMP-2 only. The procedure:
As the biologically active substances, fibroblast cell growth factor-2 (FGF-2), insulin-like growth factor-I (IGF-I), bone morphogenetic protein-2 (BMP-2) and transforming growth factor-β (TGF-β) were employed. Solutions of these biologically active substances were prepared and filled in ink cartridges as in Example 1.
Then, two polyolefin sheets (NOVIX-II® manufactured by Asahi Techno Glass) were coated with polyvinyl alcohol (Gosenol GM14L, manufactured by Nippon Gosei Kagaku) by using a bar coater to a dry film thickness of 5 μm, thereby preparing two sheet bases having a holding layer. Then, the sheets were sterilized with a sterilizing lamp and the biologically active substances were discharged onto them using an ink jet printer. Thus two transfer sheets were prepared, a transfer sheet A having FGF-2 and IGF-I in various combinations and concentrations in 12 areas, and a transfer sheet B having BMP-2 and TGF-β in various combinations and concentrations in 12 areas.
A DMEM culture liquid containing 2% FBS was put into wells of two 96-well transparent microplates 1 and 2. After the transfer sheets A and B were attached onto the microplates 1 and 2 respectively as in Example 1, the biologically active substances were dissolved by pushing each area carrying the biologically active substances from the back of the sheet with a rod (FIG. 5). […]

Data set [3] shares this test system. Nature of the data set: C2C12 culture with transfer sheet carrying b-FGF, IGF-I and BMP-2, microscope observation (Example 1). To be noted: C2C12, 96 hours culture, area containing BMP-2. How it is done: The following method was employed for mixing one or more biologically active substances in combination into a cell culture liquid. Basic fibroblast cell growth factor (b-FGF), insulin-like growth factor (IGF-I) and bone morphogenetic protein (BMP-2) were used as the biologically active substance. b-FGF was dissolved in a physiological saline solution, IGF-I in 10 mM acetic acid, and BMP-2 in 4 mM hydrochloric acid to prepare solutions each containing the biologically active substance at a concentration of 20 μg/ml and 5% glycerin. Ink cartridges were washed with 70% ethanol, to which the respective solutions prepared above were filled.
Then, on a base of a polyolefin sheet (NOVIX-II® manufactured by Asahi Techno Glass), sterilized in advance with a sterilizing lamp, the biologically active substances were discharged by using an ink jet printer (Ink jet printer F930, Canon). […]
The cells after the culture were treated with 10% formalin for 15 minutes and then with methanol for 15 minutes, and finally with a 1000-fold dilution of fluorescent dye (TOTO-3 manufactured by Molecular Probe) for 30 minutes for fluorescent staining of DNA. […] Also the cells were subjected to freeze-fracture and the creatinkinase (KP) and alkaliphosphatase (ALP) activities were measured.

The test system is the same in data set [4]. Nature of the data set: C2C12 culture with BMP-2, sustained-release IGF-I and timed FGF-2 addition, ALP staining (Example 3). To be noted: without addition of FGF-2; BMP-2 plus sustained release IGF-I, 114 hours. How it is done: As the biologically active substances, there were employed bone morphogenetic protein (BMP-2), fibroblast cell growth factor (FGF-2), and insulin-like growth factor (IGF-I). The BMP-2 and FGF-2 were respectively prepared into 20 μg/ml solutions containing 5% glycerin. On the other hand, the 20 μg/ml solution of the insulin-like growth factor (IGF-I) contained 5% glycerin and 3% styrene-acrylic resin monoethanolamine salt (average molecular weight 8,000, acid value 250) for controlled release of IGF. Ink cartridges were washed with 70% ethanol, and were filled with the respective solutions of the biologically active substances.
Then, a plurality of transfer sheets each containing a single biologically active substance in four different concentrations were prepared by providing on a base of a polyolefin sheet the respective biologically active substance using an ink jet printer as in Example 1. Each polyolefin sheet was processed in advance to have minute holes at positions corresponding to the wells of a 96 well plate to allow gas exchange. A DMEM culture liquid containing FBS by 2% was put in wells of five 96-well transparent microplates. Then the transfer sheet carrying BMP-2 was placed on each of the 96-well transparent microplates to superimpose on the wells of the microplate. […]

For “BMP-2: bone morphogenetic protein used as biologically active substance”, in data set [1], the “bone differentiation (optical microscope)” value is recorded as “bone differentiation”. Moreover, the “bone differentiation (ALP relative activity)” value in data set [2] was “accelerated”. The “differentiation into bone cells (microscope observation)” value in data set [3] was “accelerated depending on the concentrations”. Moreover, in data set [4], the “ALP staining (index for bone differentiation by BMP-2)” value was “portions stained with ALP were confirmed”.
